## Ab-95 light chain CDR variants: yeast mating affinities

The target is the same throughout: PDVDLGDISGINAS, from the HR2 region of SARS-CoV-2 spike.

Parent scFv Ab-95: VH joined to VL by a 15-residue (Gly4Ser)3 linker. Changes lie in the light chain CDRs alone.
VH: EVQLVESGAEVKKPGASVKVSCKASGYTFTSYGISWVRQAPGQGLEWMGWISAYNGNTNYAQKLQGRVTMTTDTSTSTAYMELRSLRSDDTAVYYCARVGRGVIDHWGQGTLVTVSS
VL: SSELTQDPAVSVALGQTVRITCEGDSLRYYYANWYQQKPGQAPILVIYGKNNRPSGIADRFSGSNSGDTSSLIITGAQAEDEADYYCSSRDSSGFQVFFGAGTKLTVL

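Phage display of a naive human antibody library on the peptide gave the parent. In library AAYL52, one, two or three CDR residues were substituted; doubles and triples were drawn at random. The scFvs were displayed on barcoded MATa yeast, the peptide on MATalpha yeast. The frequency of each diploid, read from paired DNA barcodes, reflects how well the two displayed proteins bind. Each replicate has its own calibration line, from reference interactions of the BCL2 family. There are three technical replicates.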

The parent's light chain CDRs are EGDSLRYYYAN, GKNNRPS, SSRDSSGFQVF; each variant's own CDRs replace them letter for letter.
Values are log10 of the apparent Kd in nM; lower means stronger binding.
A pair that was not seen in that replicate is written "nd"; this usually means weak binding, but a binder can also be missed.

| CDR-L1 | CDR-L2 | CDR-L3 | log10 Kd, replicates | control signals |
|---|---|---|---|---|
| EGDSPRYYYCN | GKNNYPS | SSRDSSGFQVF | nd / 3.47 / 3.68 | 4 of 9 (4.35) |
| NGDCLRYYYAN | GKNNDPS | SSRDSSGFQVF | nd / nd / 4.50 | 4 of 9 (3.99) |
| EGNSLRYYPAN | GKNNRPS | SSRDSSEFQVF | nd / nd / nd | 0 of 9 |
| EGDNLRYQYAN | GKNNRPS | SSRDSSGFQVI | 1.06 / 0.94 / 0.69 | 2 of 9 (5.58) |
| EGDSLRYYYFN | GTNNRPS | SSRDSSGFQVQ | 3.78 / 3.42 / nd | 2 of 9 (3.70) |
| EGRSLRYYYAN | GKNNRPS | SSRDSSGFQVF | 2.14 / 2.10 / 1.37 | 3 of 9 (4.61) |
| EGDSLRYYYAM | GKNNRPI | SSRDSWGFQVF | nd / nd / nd | 2 of 9 (4.13) |
| EGNSHRYYYAK | GKNNRPS | SSRDSSGFQVF | nd / 4.58 / nd | 3 of 9 (3.96) |
| EGDSLRYSYAN | GVNNAPS | SSRDSSGFQVF | 2.27 / 2.13 / 1.81 | 4 of 9 (4.30) |
| EGDSERYYYNN | GKNNRPS | SSYDSSGFQVF | 3.61 / nd / nd | 2 of 9 (4.07) |
| EGDSLRYYYAN | GKNNMPY | SRRDSSGFQVF | nd / nd / nd | 0 of 9 |
| EGDSLRYYYDK | GKNNRPS | SSRDSSGFQIF | nd / 4.97 / nd | 0 of 9 |
| EGDSLRYYYAN | GKFQRPS | SSRDSSGFQVF | 4.14 / 2.91 / 3.08 | 1 of 9 (3.06) |
| EGDDRRYYYTN | GKNNRPS | SSRDSSGFQVF | 2.76 / 3.09 / 2.11 | 3 of 9 (3.74) |
| EGHSLRYYYAN | GKNCRPS | SSMDSSGFQVF | 3.64 / 4.05 / 4.52 | 4 of 9 (4.48) |
| CGDSLRYYYAN | IKNNRPS | SSIDSSGFQVF | nd / nd / nd | 0 of 9 |
| EGDSLRYYIAN | GKNNRPS | SSDDSSGFQIF | 4.31 / 3.98 / 4.30 | 2 of 9 (3.37) |
| EGDSLRYYYAN | GKNKRPS | MMRDSSGFQVF | 4.30 / 3.69 / nd | 4 of 9 (4.12) |
| EGDSYRLYYAN | GKNNRPS | SSRDSSGFQVF | 4.59 / nd / nd | 0 of 9 |
| EGDSPRYYYAN | GKNERPS | NSRDSSGFQVF | nd / nd / nd | 4 of 9 (3.56) |
| EGDELRYYYAN | GKNNRQS | SSRDSSGFQPF | 1.71 / 1.76 / 2.74 | 2 of 9 (4.22) |
| EGDSLEYYYHN | GKNNRPS | SSRDSSMFQVF | 4.72 / nd / nd | 1 of 9 (2.86) |
| EGDSLRYYYLN | GKNTRPS | SSRDSSGFQIF | nd / nd / 4.28 | 5 of 9 (4.29) |
| EGDVLRYYYAN | GDNNRPS | CSRDSSGFQVF | 3.88 / 3.76 / 4.22 | 0 of 9 |
| EGDSLRYYYAN | GKNNRPS | SSRDCTGFYVF | 2.36 / 2.53 / 2.08 | 5 of 9 (4.18) |
| EGDSLRYYYNK | GKNNRPS | SSKDSSGFQVF | 2.62 / nd / 3.51 | 3 of 9 (3.23) |
| EGDSLRYYPAN | SKNNRPS | SSRDISGFQVF | 1.80 / 1.80 / 1.52 | 1 of 9 (4.51) |
| LGDSLRYYYAN | QKNNRPS | SSRDSSGFQAF | 3.79 / nd / nd | 2 of 9 (4.16) |
| EGDSLRYYYAN | HKNNRDS | SSRDFSGFQVF | nd / nd / nd | 3 of 9 (3.93) |
| EGDSLRYYYEN | KKNNRPS | SSRNSSGFQVF | nd / 3.91 / nd | 2 of 9 (3.74) |
| EDDSLRVYYAN | GKNNRPS | SRRDSSGFQVF | 4.04 / 5.19 / nd | 4 of 9 (4.03) |
| EGKSLRYYYAN | GKNNNPS | SSRDSSGFQVF | 3.69 / 3.01 / 4.46 | 3 of 9 (3.55) |
| EGDSLRNYYAP | GKNNRPS | SSRDSSGKQVF | 4.79 / 4.55 / nd | 3 of 9 (4.32) |
| EGDSLRYYYAN | GKNNRHS | SSRDSSNFQVC | 2.84 / 3.03 / 2.92 | 1 of 9 (2.77) |
| EGDSLRYYYAN | GKDNRPS | SSRDSSGFQVY | 2.14 / 2.04 / 2.29 | 1 of 9 (2.43) |
| EGMSLRYYYAN | GRNNRPS | SSRDSSGFQVF | 2.51 / 2.53 / 2.54 | 3 of 9 (4.27) |
| EGDSLRYCWAN | GKNNRQS | SSRDSSGFQVF | 3.12 / 3.05 / 3.19 | 3 of 9 (4.26) |
| EGDHLRYYYAN | GKNNRHS | SSRDSSSFQVF | nd / 2.47 / 3.71 | 1 of 9 (2.64) |
| EVDSLRYYYAN | GKNNRPS | SFRDSSVFQVF | 3.33 / 2.92 / 3.99 | 5 of 9 (3.58) |
| EGDSLRYYIAN | GENNRPS | SSRDSSGFFVF | 2.81 / 2.60 / 3.12 | 5 of 9 (3.95) |
| EGWSLRYYYAN | GKNGRPS | SERDSSGFQVF | nd / nd / 3.76 | 4 of 9 (3.64) |
| EGDTLFYYYAN | CKNNRPS | SSRDSSGFQVF | nd / 4.87 / nd | 4 of 9 (4.08) |
| EGASLRYYYDN | GKNNRPS | SSRDSSGVQVF | 5.48 / 3.25 / nd | 5 of 9 (4.00) |
| EGDSLRYYYAN | GKNNRPS | DSRDKQGFQVF | 2.35 / 1.99 / nd | 0 of 9 |
| EGSSLRYYYAN | GKNNRPS | SSRDSSWSQVF | 1.59 / 1.96 / 1.48 | 2 of 9 (3.28) |

Excerpt, the first 7 entries:

| CDR-L1 | CDR-L2 | CDR-L3 | log10 Kd, replicates | control signals |
|---|---|---|---|---|
| EGDSPRYYYCN | GKNNYPS | SSRDSSGFQVF | nd / 3.47 / 3.68 | 4 of 9 (4.35) |
| NGDCLRYYYAN | GKNNDPS | SSRDSSGFQVF | nd / nd / 4.50 | 4 of 9 (3.99) |
| EGNSLRYYPAN | GKNNRPS | SSRDSSEFQVF | nd / nd / nd | 0 of 9 |
| EGDNLRYQYAN | GKNNRPS | SSRDSSGFQVI | 1.06 / 0.94 / 0.69 | 2 of 9 (5.58) |
| EGDSLRYYYFN | GTNNRPS | SSRDSSGFQVQ | 3.78 / 3.42 / nd | 2 of 9 (3.70) |
| EGRSLRYYYAN | GKNNRPS | SSRDSSGFQVF | 2.14 / 2.10 / 1.37 | 3 of 9 (4.61) |
| EGDSLRYYYAM | GKNNRPI | SSRDSWGFQVF | nd / nd / nd | 2 of 9 (4.13) |

Parent in this assay: reference entry 2.31, copy in this library 2.25.
Empty control strains, which show no peptide, gave a signal in 28% of pairings with library AAYL52; the median was 3.91 and 95% of these signals were weaker than 2.90. No background was subtracted. For each scFv, signals with the empty controls are counted beside the result, with their mean in brackets.

Source: Engelhart et al. 2022 (doi:10.1038/s41597-022-01779-4), MIT Lincoln Laboratory and A-Alpha Bio; data file from the FLAb repository.